Experimental data: PMC12391994, “Synthesis of a fac-Tricarbonylrhenium(I) Complex with Pyrithione, Its Physicochemical Characterization, and Assessment of Biological Effects” (ACS Omega, 2025)

Experiments:
[1] = test system: MCF-10A neoT cells; assay: Intracellular DQ-collagen IV degradation (flow cytometry); type: cell-based, human; conditions: 5 μM
[2] = test system: MCF-10A neoT cells; assay: Extracellular DQ-collagen IV degradation (spectrofluorimetry); type: cell-based, human; conditions: 5 μM

## N#Cc1ccccc1.[C-]#[O+].[C-]#[O+].[C-]#[O+].[O-]n1ccccc1=S.[Re+] [complex 4, fac-[Re(CO)3(pth)(benzonitrile)]]
[1]
  reduction of intracellular DQ-collagen IV degradation: 83.3 ± 1.36%
[2]
  reduction of extracellular DQ-collagen IV degradation: 41.4 ± 5.18%
